The nature of this series: Pharmacokinetics of hydrocodone prodrugs following PO administration to dogs, with or without Compound 109.

Turning to `COc1ccc2c3c1O[C@H]1C(=O)CC[C@H]4[C@@H](C2)N(C)CC[C@]314` [Hydrocodone, hydrocodone], the “Tmax ± sd” value (Table 13: dog plasma, PO, hydrocodone […] (0.5 μmol/kg)) came out at 25 ± 5.76 min. Also, the Tmax (male, beagle, dog, plasma, po, […]) was determined as 25 ± 5.76 min.
